In patent publication US20050014682A1, “Cell-free assay for insulin signaling” (priority 2003, published 2005):

System: Akt
Assay: Cell-free in vitro assay (3T3-L1 adipocyte PM/CYT/LDM fractions), Akt phosphorylation by phospho-Akt immunoblot
Format: biochemical

sodium orthovanadate
control (basal) phospho-Akt signal in reactions containing PM(−ins): also elevated
signal for both Akt phosphorylation sites in reactions containing PM(+ins): appeared to elevate the signal
